The assay has as its system A. fumigatus wild-type, ΔmpkA, and ΔcalA strains. Briefly: Fungistatic activity of caspofungin, plating after 24 hours. The following applies: caspofungin 0.2 μg/ml.

Molecules are shown by their SMILES.

This note sets out measurements from US20240139188A1, “Arylamide Compounds For Treatment And Prevention Of Fungal Infections” (priority 2022, published 2024).

In the case of `CC[C@H](C)C[C@H](C)CCCCCCCCC(=O)N[C@H]1C[C@@H](O)[C@@H](NCCN)NC(=O)[C@@H]2[C@@H](O)CCN2C(=O)[C@H]([C@H](O)CCN)NC(=O)[C@H]([C@H](O)[C@@H](O)c2ccc(O)cc2)NC(=O)[C@@H]2C[C@@H](O)CN2C(=O)[C@H]([C@@H](C)O)NC1=O` [CAS, caspofungin], the type of activity result is recorded as “fungistatic activity”.
